# Reference: US20250381194A1, “METHODS FOR MITIGATING THE EFFECTS OF LOW-LEVEL BLASTS THROUGH PHOSPHODIESTERASE-5 INHIBITION” (University of Kentucky Research Foundation, priority 2024, published 2025)
# “Also recorded” adds a separate entry of the source.
# Columns and labels:
# [1] = tested on: capillaries isolated from the cortex; assay: Capillary respirometry profiling (Seahorse mitochondrial stress test) of isolated brain capillaries after mbTBI; format: cell-based, Sprague Dawley rats
# From the text: Blast Exposure. The MBD consists of a cylindrical steel tube, 12-inch internal diameter, separated into a 19-ft. expansion chamber and a 2.5-ft compression chamber. For these studies, compressed helium-driven mode was used to replicate military blast exposure. A 10-mil-thick (0.254 mm) biaxially-oriented polyethylene terephthalate (Mylar) membrane separates the two chambers. The Mylar membrane was actively ruptured by a 4-point blade affixed to a pneumatic cylinder to achieve desired static overpressure. The shock wave was recorded by face-on, reflected pressure (Kulite pitot-static pressure probe) and wall-mounted side-on static pressure sensors (Kulite). Data from each piezoresistive sensor was routed through sensor cables before being captured by the state-of-the-art TMX-18 (AstroNova™ Test & Measurement, 800 kHz sampling rate) and analyzed using AstroView. The rat subjects were secured in plastic netting to minimize but allow free body motion without neck flexion. The rat subjects were positioned 30 inches inside the tube and with lateral head exposure. An overpressure of 11 PSI was utilized, which is in the range where neurological disruption has been observed in operations involving breaching activity. In the studies underlying this example, Sprague Dawley rats were subjected to single blast exposure. Capillary Isolation. Brain capillaries were isolated as previously described. Animals were euthanized by CO2 inhalation and decapitated, brains were removed, dissected, and homogenized in cold PBS buffer (2.7 mM KCl, 1.46 mM KH2PO4, 136.9 mM NaCl, 8.1 mM Na2HPO4, 5 mM D-glucose, 1 mM sodium pyruvate, pH 7.4). Ficoll® was added to the brain homogenate to a final concentration of 15% and the Ficoll®/brain mixture was centrifuged at 5,800 g for 20 min at 4° C. After resuspending the pellet in 1% BSA/PBS, the capillary suspension was passed over a 30 μm filter to purify capillaries from debris and blood cells. Capillaries were washed and used for experiments. Capillary Respirometry Profiling. Vessel respiration was conducted according to our preliminary study and Sure, et al. (2018). Using a Seahorse XFe96 Flux Analyzer (Agilent Technologies, Palo Alto, CA, USA), the mitochondrial stress test was performed according to the manufacturer's instructions. Briefly, capillaries from each group were centrifuged, and the pellet was resuspended in XF assay medium with substrates (10 mM glucose, 1 mM pyruvate, and 2 mM L-glutamine). […] After three measurements of baseline OCR (basal respiration), respiratory chain inhibitors/uncouplers were sequentially injected into each well (1 μM Oligomycin, 4 μM FCCP, 0.5 μM Rotenone/Antimycin A, and 5 mM 2-deoxyglucose (2DG)), and OCR was measured three times after each injection. Maximal respiration was calculated on OCR data recorded after FCCP addition and basal glycolysis was calculated on Extracellular Acidification Rate (ECAR) data recorded after 2-DG addition. At the end of the experiment, the XF microplate was centrifuged at 1000 g for 10 min, after removing the media, 10 μl RIPA buffer was added to the capillaries in each well, and freeze-thaw cycles were performed 3 times in dry ice before protein was quantified using a BCA kit (23225; Thermo Scientific). Using Wave software version 2.6.1 (Agilent Technologies, Santa Clara, CA, USA), OCR from various respiration states was calculated and normalized to protein concentration Respiration in Capillaries Following mbTBI. […]
# [2] = tested on: cyclic guanosine monophosphate (cGMP) in capillaries isolated from rat cortex; assay: cGMP ELISA on media of isolated brain capillaries; format: cell-based; conditions: sildenafil 100 nM, 1 μM or 10 μM, incubated two hours; vs control capillaries
# Description: cGMP Concentration. The effect of sildenafil treatment on cyclic guanosine monophosphate (cGMP) following rmbTBI was assessed by comparison of isolated control capillaries and isolated sildenafil-treated capillaries (100 nM, 1 μM, or 10 μM) obtained from rat cortex. Capillaries were isolated from rat cortex and incubated for two hours and then media was collected and tested using cGMP ELISA kit.
# [3] = tested on: cognitive performance following rmbTBI; assay: Novel object recognition task after rmbTBI; format: in vivo, Sprague Dawley rats; conditions: 5 mg/kg low dose daily, three days post-rmbTBI; compared to chance (0.5)
# From the text: Blast Exposure. The MBD consists of a cylindrical steel tube, 12-inch internal diameter, separated into a 19-ft. expansion chamber and a 2.5-ft compression chamber. For these studies, compressed helium-driven mode was used to replicate military blast exposure. A 10-mil-thick (0.254 mm) biaxially-oriented polyethylene terephthalate (Mylar) membrane separates the two chambers. The Mylar membrane was actively ruptured by a 4-point blade affixed to a pneumatic cylinder to achieve desired static overpressure. The shock wave was recorded by face-on, reflected pressure (Kulite pitot-static pressure probe) and wall-mounted side-on static pressure sensors (Kulite). Data from each piezoresistive sensor was routed through sensor cables before being captured by the state-of-the-art TMX-18 (AstroNova™ Test & Measurement, 800 kHz sampling rate) and analyzed using AstroView. The rat subjects were secured in plastic netting to minimize but allow free body motion without neck flexion. The rat subjects were positioned 30 inches inside the tube and with lateral head exposure. […] For analysis, a recognition index was calculated for each trial (time spent exploring the familiar object relative to the novel object divided by total time exploring objects during each trial). […] Results were assessed one week after blast exposure.
# [4] = tested on: cortex metabolites (NAD+/NADH metabolism); assay: Cortex metabolomic profile by LC-MS after rmbTBI; format: in vivo, Sprague-Dawley rats; conditions: 20 mg/kg oral gavage daily for 7 days, vs rmbTBI vehicle
# From the text: Animal Procedure. Male Sprague-Dawley rats (Charles River Laboratories, Wilmington, MA, USA), aged 8-10 weeks and weighing approximately 250-300 g, randomly assigned into experimental groups (n=5/group), including: (1) Sham group without blast treatment (vehicle via oral gavage daily for 7 days); (2), rmbTBI-Vehicle group (vehicle via oral gavage daily for 7 days, with administration occurring immediately following each respective blast exposure and continuing to day 7); and (3) rmbTBI-Sildenafil group (20 mg/kg sildenafil via oral gavage daily for 7 days, with administration occurring immediately following each respective blast exposure and continuing to day 7). The rmbTBI blast procedure was performed on day 0 and day 1 (24 h interval) (i.e., two blasts total) using a McMillan Blast Device at delivering 11 psi peak static overpressure blast wave. On day 8, the rats were euthanized without the use of isoflurane to preserve endogenous metabolites. The brain was rapidly removed, and the hippocampus and cortex were dissected, snap-frozen in liquid nitrogen, and stored at −80° C. until further analysis. Frozen brain tissues were submitted for liquid chromatography-mass spectrometry (LC-MS) analysis to quantify metabolites and assess biochemical alteration.
# Sample Prep for LC-MS. All tissues were handled on liquid nitrogen when removed from cryostorage at −80° C. Brain samples were removed from cryostorage and pulverized to 10 μm particles in liquid N2 using a Freezer/Mill Cryogenic Grinder (model 6875D, SPEX SamplePrep, Metuchen, NJ, USA). Approximately 25 mg of powdered tissue was removed with a micro spatula to a new tube and extracted with 50% MeOH (1% formic acid). Following addition of MeOH, mixtures were placed on ice for 20 min and briefly vortexed at 5 min intervals. Following centrifugation at 24,000×g for 10 min at 4° C. the aqueous phase containing polar metabolites was filtered to remove lipids using Agilent captiva EMR-Lipid filter under positive pressure manifold. The resulting filtrate was fully dried at 10-3 mBar using a SpeedVac (Thermo Fisher Scientific, Waltham, MA, USA) to evaporate remaining MeOH then reconstituted in 5% acetonitrile, normalized to mass of tissue used for extraction.
# High-Performance Liquid Chromatograph (HPLC) Parameters. Metabolite separation was achieved using the Agilent 1290 Infinity II Stainless HPLC system equipped with an InfinityLab Poroshell 120 HILIC-Z column. The mobile phase consisted of solvent A (water with 10 mM ammonium acetate and 0.1% medronic acid) and solvent B (acetonitrile with 10 mM ammonium acetate).
# MS/MS Parameters. Analysis performed on Agilent 6495C LC/TQ with the following parameters: ion mode set at both positive and negative, gas temperature 200 C, drying gas flow 14 L/min, nebulizer gas at 50 psi, sheath gas temperature at 375 C, sheath gas flow at 12 L/min, capillary voltage set to (+) 3000/(−) 2500 V and nozzle voltage set at 0 V.
# Data Analysis. After data acquisition, initial data analysis performed on Agilent MassHunter Quantitative Analysis for peak identification and quantification. Relative abundance of each metabolite was then exported into excel and statistical analysis performed using Metaboanalyst (https://www.metaboanalyst.ca). Graphs were made using GraphPad Prism 9.
# [5] = tested on: IBA1; assay: IBA1 brain tissue immunostaining with HALO analysis, chronic delayed sildenafil study; format: in vivo, Sprague Dawley rats; conditions: 20 mg/kg oral gavage daily from 2 months to 5 months post-blast injury, rmbTBI
# Description: Animal Procedure. 8-12 week old male Sprague Dawley rats (purchased from Charles River) randomly assigned into experimental groups: 1) Sham group without blast treatment, total n=12 rats (n=6 received 20 mg/kg sildenafil and n=6 received vehicle via oral gavage daily from 2 months to 5 months post-blast injury); 2) rmbTBI-Vehicle group, total n=11 rats (vehicle via oral gavage daily from 2 months to 5 months post-blast injury); 3) rmbTBI-Sildenafil group, total n=12 rats (20 mg/kg sildenafil via oral gavage daily from 2 months to 5 months post-blast injury). MRI (magnetic resonance imaging) was performed at 1.5 and 4.5 months post-blast. Fear conditioning test was performed at 5 months post-blast. At the end of the experiment, rats were euthanized and the brain tissue was collected after transcardial perfusion with PBS (FIG. 24). One hemisphere of the brain was snap frozen with liquid nitrogen for brain capillary isolation while another hemisphere of the brain was fixed with 4% paraformaldehyde (PFA). After 48 hours of fixation, the brain tissue was placed into PBS containing 30% sucrose for 72 hours. The sucrose saturated brain tissue was flash frozen in-25 to -35° C. isopentane and stored at -20° C. or proceeded to sectioning. Brain tissue Immunostaining. The PFA fixed and processed half rat brain tissue from all groups was sliced into 40-micron thickness. […]
# [6] = first cohort, mbTBI (single blast 11 PSI) capillaries isolated 1 day post-blast, bathed in sildenafil for two hours, vs control
smiles,measurement,setting,value
CCCc1nn(C)c2c(=O)[nH]c(-c3cc(S(=O)(=O)N4CCN(C)CC4)ccc3OCC)nc12 [sildenafil],capillary-specific maximal mitochondrial respiration,"[1]; data combined from both cohorts, mbTBI capillaries, sildenafil two hours",restore mbTBI-induced deficits
same,basal glycolysis,[1]; [6],non-significantly increased
same,basal respiration,[1]; [6],non-significantly increased
same,maximal respiration,[1]; [6],non-significantly increased
same,maximal respiration,"[1]; second cohort, mbTBI capillaries isolated 1 day post-blast, bathed in sildenafil for two hours",normalized
same,cGMP in isolated capillaries,[2],increased
same,recognition index (RI),[3],significantly increased
same,relative abundance of NAD+ in cortex,[4],increase
same,relative abundance of NADH in cortex,[4],increase
same,relative abundance of cAMP in cortex,[4],increase
same,relative abundance of fructose-6-phosphate in cortex,[4],decrease
same,relative abundance of glucose-6-phosphate in cortex,[4],decrease
same,relative abundance of guanosine-5-monophosphate (GMP) in cortex,[4],decrease
same,relative abundance of nicotinamide in cortex,[4],decrease; also recorded: statistically significant reduction
same,"IBA1 expression in cortex, hippocampus, amygdala and corpus callosum",[5],inconclusive
